The record followed here is patent US9499482B2, “Pyrrolone or pyrrolidinone melanin concentrating hormone receptor-1 antagonists” (BRISTOL-MYERS SQUIBB COMPANY, priority 2012, dated 2016).

Sequences of proteins named here, by UniProt entry; tags and fusion partners are left off.
UniProt Q99705, whole entry E4Q/A5T: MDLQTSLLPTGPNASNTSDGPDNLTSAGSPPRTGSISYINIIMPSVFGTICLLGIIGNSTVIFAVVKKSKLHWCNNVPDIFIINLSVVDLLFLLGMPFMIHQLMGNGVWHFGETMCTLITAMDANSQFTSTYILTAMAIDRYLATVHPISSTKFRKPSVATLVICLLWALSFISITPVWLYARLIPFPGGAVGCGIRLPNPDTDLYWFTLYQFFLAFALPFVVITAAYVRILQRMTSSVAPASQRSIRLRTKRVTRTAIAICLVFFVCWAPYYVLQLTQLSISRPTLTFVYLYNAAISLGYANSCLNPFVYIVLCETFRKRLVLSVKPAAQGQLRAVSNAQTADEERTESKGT

The structures appear in SMILES notation.

The experiment has as its target human melanin concentrating hormone receptor (MCHR1), mutated (E4Q, A5T) hMCHR1 (Homo sapiens (Human), UniProt Q99705, A5T/E4Q). Briefly: Radioligand binding assay for assessment of MCHR1 activity ([125I]-MCH competition, HEK-293 membranes). Particulars: membranes from HEK-293 cells expressing mutated (E4Q, A5T) hMCHR1; 0.06-0.1 nM [Phe13,[125I]Tyr19]-MCH. The procedure: Radioligand Binding Assay for Assessment of MCHR1 Activity
An in vitro binding assay was used to determine the compound Ki value or ability to antagonize binding of a peptide agonist to the human melanin concentrating hormone receptor (MCHR1). Membranes from stably transfected HEK-293 cells expressing a mutated (E4Q, A5T) hMCHR1 receptor were prepared by dounce homogenization and differential centrifugation. […] Filters were dried, 0.05 mL MicroScint 20 was added to each well and radioactivity was subsequently quantified by scintillation counting on a TOPCOUNT® microplate scintillation counter (Packard). Inhibitory constants were determined by nonlinear least squares analysis using a four parameter logistic equation.
Broadly, the Ki is the dissociation constant of the complex between target and ligand, obtained from inhibition or displacement. Read a low Ki as a stronger hold on the target. `Cc1cc(N2CC[C@H](Oc3ccc(C4CC4)cc3)C2=O)ccc1OCCN1CCC[C@H]1CO` [Example 72] gave a Ki of 0.8 nM.

`Cc1cc(N2CC[C@H](Oc3ccc(C4CC4)cc3)C2=O)ccc1OCCN1CC2(COC2)C1` [Example 73] displayed a Ki of 1.4 nM. This Ki is about 1.7-fold higher than that of the compound before.

`Cc1cc(N2CC[C@H](Oc3ccc(C4CC4)cc3)C2=O)ccc1OCCN1CC(O)C1` [Example 74] had an inhibition constant (Ki) of 5 nM. Compared with the last compound, the Ki is about 3.6-fold higher.

Compound `Cc1cc(N2CC[C@H](Oc3ccc(C4CC4)cc3)C2=O)ccc1OCCN1CCOCC1` [Example 75] displayed a Ki of 2 nM.

The compound `Cc1cc(N2CC[C@H](Oc3ccc(C4CC4)cc3)C2=O)ccc1OCCN1CCNC(=O)C1` [Example 76] gave an inhibition constant (Ki) of 5 nM.

With `Cc1cc(N2CC[C@H](Oc3ccc(C4CC4)cc3)C2=O)ccc1OCCN(C)CCO` [Example 77], affinity was put at a Ki of 1.3 nM.

As to `Cc1cc(N2CC[C@H](Oc3ccc(C4CC4)cc3)C2=O)ccc1OCCN1CCC[C@@H]1CO` [Example 78], the affinity corresponds to a Ki of 1.4 nM.

Consider `Cc1cc(N2CC[C@H](Oc3ccc(C4CC4)cc3)C2=O)ccc1OCCN1CC[C@H](O)C1` [Example 79], for which the Ki came out at 1 nM. This Ki and that of the compound before are within 1.5-fold of each other.

`Cc1cc(N2CC[C@H](Oc3ccc(C4CC4)cc3)C2=O)ccc1OCCN1CC[C@H](F)C1` [Example 80] returned a Ki of 1.1 nM.

Regarding `COC[C@@H]1CCCN1CCOc1ccc(N2CC[C@H](Oc3ccc(C4CC4)cc3)C2=O)cc1C` [Example 81], the Ki turned out to be 1.2 nM.

For the compound `Cc1cc(N2CC[C@H](Oc3ccc(C4CC4)cc3)C2=O)ccc1OCCN1CCC[C@H]1C(N)=O` [Example 82], the Ki amounted to 2 nM. Against the preceding compound, the Ki is about 1.7-fold higher.

Turning to `Cc1cc(N2CC[C@H](Oc3ccc(C4CC4)cc3)C2=O)ccc1OCCNCCO` [Example 83], the Ki is 1.2 nM. This Ki is about 1.7-fold lower than that of the compound before.

In turn, `Cc1cc(N2CC[C@H](Oc3ccc(C4CC4)cc3)C2=O)ccc1OCCNC1(CO)CCCC1` [Example 84] showed a Ki of 0.9 nM.

As for `Cc1cc(N2CC[C@H](Oc3ccc(C4CC4)cc3)C2=O)ccc1OCCNCC#N` [Example 85], the Ki stood at 7 nM. Compared with the last compound, the Ki is about 7.8-fold higher.

Compound `CNCCOc1ccc(N2CC[C@H](Oc3ccc(C4CC4)cc3)C2=O)cc1C` [Example 86] yielded a Ki of 1.1 nM. This Ki lies about 6.4-fold lower than the previous one.

In the case of `Cc1cc(N2CC[C@H](Oc3ccc(C4CC4)cc3)C2=O)ccc1OCCN(C)C` [Example 87], the Ki is 1 nM.

For the compound `Cc1cc(N2CC[C@H](Oc3ccc(C4CC4)cc3)C2=O)ccc1OCCNCC(F)(F)F` [Example 88], affinity was put at a Ki of 18 nM.

Compound `Cc1cc(N2CC[C@H](Oc3ccc(C4CC4)cc3)C2=O)ccc1OCCNCC1(C)COC1` [Example 89] had a Ki of 1 nM.

For `Cc1cc(N2CC[C@H](Oc3ccc(C4CC4)cc3)C2=O)ccc1OCCN1CCC2(CC1)COC2` [Example 90], affinity was put at a Ki of 1 nM.

For the compound `Cc1cc(N2CC[C@H](Oc3ccc(C4CC4)cc3)C2=O)ccc1OCCNCC1(CO)COC1` [Example 91], the Ki worked out at 1.8 nM.

The compound `O=C1[C@@H](Oc2ccc(C3CC3)cc2)CCN1c1ccc(OCCN2CC[C@H](O)C2)c(Cl)c1` [Example 94] yielded a Ki of 0.9 nM.

Compound `O=C1[C@@H](Oc2ccc(C3CC3)cc2)CCN1c1ccc(OCCN2CC[C@@H](O)C2)c(Cl)c1` [Example 95] had an inhibition constant (Ki) of 1.1 nM.

As for `O=C1[C@@H](Oc2ccc(C3CC3)cc2)CCN1c1ccc(OCCN2CC[C@@H](F)C2)c(Cl)c1` [Example 96], the Ki worked out at 1.3 nM. This Ki and that of the compound before are within 1.5-fold of each other.

The compound `O=C1[C@@H](Oc2ccc(C3CC3)cc2)CCN1c1ccc(OCCN2CC[C@H](F)C2)c(Cl)c1` [Example 97] registered a Ki of 3 nM.

As to `O=C1[C@@H](Oc2ccc(C3CC3)cc2)CCN1c1ccc(OCCN2CCC[C@H]2CO)c(Cl)c1` [Example 98], the Ki turned out to be 3 nM.

Compound `CN(CCO)CCOc1ccc(N2CC[C@H](Oc3ccc(C4CC4)cc3)C2=O)cc1Cl` [Example 99] had a Ki of 1.2 nM.

For the compound `O=C1[C@@H](Oc2ccc(C3CC3)cc2)CCN1c1ccc(OCCN2CCC(F)(F)C2)c(Cl)c1` [Example 100], the Ki stood at 30 nM.

Take `O=C1[C@@H](Oc2ccc(C3CC3)cc2)CCN1c1ccc(OCCN2CCC[C@@H]2CO)c(Cl)c1` [Example 101]: the inhibitory constant (Ki) amounted to 1 nM.

`O=C1[C@@H](Oc2ccc(C3CC3)cc2)CCN1c1ccc(OCCN2CCOCC2)c(Cl)c1` [Example 102] returned an inhibitory constant (Ki) of 2 nM.

The compound `O=C1CN(CCOc2ccc(N3CC[C@H](Oc4ccc(C5CC5)cc4)C3=O)cc2Cl)CCN1` [Example 103] showed a Ki of 12 nM.

Compound `NC(=O)[C@@H]1CCCN1CCOc1ccc(N2CC[C@H](Oc3ccc(C4CC4)cc3)C2=O)cc1Cl` [Example 104] yielded a Ki of 8 nM.

`O=C1[C@@H](Oc2ccc(C3CC3)cc2)CCN1c1ccc(OCCN2CC=CC2)c(Cl)c1` [Example 105] had a Ki of 1.5 nM.

The compound `O=C1[C@@H](Oc2ccc(C3CC3)cc2)CCN1c1ccc(OCCN2CC(O)C2)c(Cl)c1` [Example 106] registered an inhibition constant (Ki) of 1.3 nM.

In the case of `O=C1[C@@H](Oc2ccc(C3CC3)cc2)CCN1c1ccc(OCCN2C[C@@H](O)[C@@H](O)C2)c(Cl)c1` [Example 107], the Ki amounted to 1.4 nM.

In turn, `COc1cc(N2CC[C@H](Oc3ccc(C4CC4)cc3)C2=O)ccc1OCCN(C)C(C)=O` [Example 116, (S)—N-(2-(4-(3-(4-Cyclopropylphenoxy)-2-oxopyrrolidin-1-yl)-2-methoxyphenoxy)ethyl)-N-methylacetamide] gave a Ki of 6 nM.

As to `COc1cc(N2CC[C@H](Oc3ccc(C4CC4)cc3)C2=O)ccc1OCCN(C)S(C)(=O)=O` [Example 117], the inhibitory constant (Ki) amounted to 6 nM.

In turn, `COc1cc(N2CC[C@H](Oc3ccc(C4CC4)cc3)C2=O)ccc1OCCN(C)S(=O)(=O)c1sc(NC(C)=O)nc1C` [Example 118] displayed an inhibition constant (Ki) of 85 nM. Compared with the last compound, the Ki is about 14-fold higher.

In turn, `COc1cc(N2CC[C@H](Oc3ccc(C4CC4)cc3)C2=O)ccc1OCCN(C)S(=O)(=O)c1ccccc1` [Example 119] showed a Ki of 16 nM.

As to `COc1cc(N2CC[C@H](Oc3ccc(C4CC4)cc3)C2=O)ccc1OCCN(C)S(=O)(=O)C(C)C` [Example 120], the affinity corresponds to a Ki of 8 nM. This Ki is about 2-fold lower than that of the compound before.

In turn, `COc1cc(N2CC[C@H](Oc3ccc(C4CC4)cc3)C2=O)ccc1OCCN(C)S(=O)(=O)CC(F)(F)F` [Example 121] yielded an inhibition constant Ki of 21 nM. Compared with the last compound, the Ki is about 2.6-fold higher.

`CCS(=O)(=O)N(C)CCOc1ccc(N2CC[C@H](Oc3ccc(C4CC4)cc3)C2=O)cc1OC` [Example 122] registered a Ki of 6 nM.

The compound `CCCS(=O)(=O)N(C)CCOc1ccc(N2CC[C@H](Oc3ccc(C4CC4)cc3)C2=O)cc1OC` [Example 123] yielded a Ki of 8 nM. The Ki values of the last two compounds are within 1.5-fold of each other.

Compound `COc1cc(N2CC[C@H](Oc3ccc(C4CC4)cc3)C2=O)ccc1OCCN(C)S(=O)(=O)c1c(C)noc1C` [Example 124] had a Ki of 19 nM.

Compound `COc1cc(N2CC[C@H](Oc3ccc(C4CC4)cc3)C2=O)ccc1OCCN(C)S(=O)(=O)C1CC1` [Example 125] displayed an inhibitory constant (Ki) of 6 nM.

In turn, `COc1cc(N2CC[C@H](Oc3ccc(C4CC4)cc3)C2=O)ccc1OCCN(C)S(=O)(=O)c1cnoc1C` [Example 126] came in with a Ki of 35 nM.

On to `COc1cc(N2CC[C@H](Oc3ccc(C4CC4)cc3)C2=O)ccc1OCCN(C)S(=O)(=O)CC(C)C` [Example 127], for which the Ki was determined as 5 nM.

`COCC(=O)N(C)CCOc1ccc(N2CC[C@H](Oc3ccc(C4CC4)cc3)C2=O)cc1OC` [Example 128]: the Ki was found to be 6 nM. The Ki values of the last two compounds are within 1.5-fold of each other.

`CCOC(=O)N(C)CCOc1ccc(N2CC[C@H](Oc3ccc(C4CC4)cc3)C2=O)cc1OC` [Example 129] yielded a Ki of 14 nM.

`COC(=O)N(C)CCOc1ccc(N2CC[C@H](Oc3ccc(C4CC4)cc3)C2=O)cc1OC` [Example 130] had a Ki of 4 nM.
